According to patent publication US20150258139A1, “METHODS FOR TREATMENT OF CANCER USING LIPOPLATIN” (REGULON, INC., priority 2012, published 2015):

Tests used:
[1] = tested on: F98 glioma tumor; conditions: rat, in vivo
[2] = tested on: metastatic colorectal cancer; conditions: cited from earlier work; for severe neurotoxicity, % of patients: 130 mg/m2 once every 3 weeks

## O=C1[O][Pt]2([NH][C@@H]3CCCC[C@H]3[NH]2)[O]C1=O [Oxaliplatin]
[1]
  toxicity observed in animals: too toxic for the animals
[2]; after 6 treatment cycles
  severe neurotoxicity, % of patients: 10%
[2]; after 9 cycles
  severe neurotoxicity, % of patients: 50%
[2]; monotherapy, second line, Japanese study, notably neuropathy
  toxicities: Grade 3 toxicities

Where two headings read alike, the source gives them in different places.
